Measurements: BindingDB's records for doi:10.1124/jpet.102.047118 (Juvantia Pharma, 2003)

Protein sequences, listed by entry. Tags and fused reporters are not part of them. Lines headed by an entry give the natural chain unless they say otherwise; changes in a name come on top.
UniProt Q9Y5X5: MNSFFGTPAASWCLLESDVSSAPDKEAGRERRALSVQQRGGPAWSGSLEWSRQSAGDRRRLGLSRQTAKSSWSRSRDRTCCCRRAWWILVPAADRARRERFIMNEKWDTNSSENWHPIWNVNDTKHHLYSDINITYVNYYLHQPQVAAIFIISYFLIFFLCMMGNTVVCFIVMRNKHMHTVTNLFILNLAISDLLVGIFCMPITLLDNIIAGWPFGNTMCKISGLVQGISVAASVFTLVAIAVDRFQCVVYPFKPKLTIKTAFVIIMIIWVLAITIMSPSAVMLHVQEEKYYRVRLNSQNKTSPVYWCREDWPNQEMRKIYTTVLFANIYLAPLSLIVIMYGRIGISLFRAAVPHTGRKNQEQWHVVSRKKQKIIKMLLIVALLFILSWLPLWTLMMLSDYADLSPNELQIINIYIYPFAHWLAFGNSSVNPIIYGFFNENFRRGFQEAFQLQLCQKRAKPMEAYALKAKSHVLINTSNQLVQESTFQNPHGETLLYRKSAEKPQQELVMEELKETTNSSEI

Assays:
[1] = molecular target: Neuropeptide FF receptor 2 (Homo sapiens, UniProt Q9Y5X5)

Ki [1]: 13 nM
Ki: 2.2 nM
SMILES: CSCC[C@H](NC(=O)[C@@H](N)Cc1ccccc1)C(=O)N[C@@H](CCCN=C(N)N)C(=O)N[C@@H](Cc1ccccc1)C(N)=O [CAS_68615]
